The text below walks through data of article PMC3164469.

Sequences of proteins named here, by UniProt entry; tags and fusion partners are left off. A change or cut given only in a name is not applied to a line headed by its entry. Residues count along the entry.
UniProt Q02308, 232-358: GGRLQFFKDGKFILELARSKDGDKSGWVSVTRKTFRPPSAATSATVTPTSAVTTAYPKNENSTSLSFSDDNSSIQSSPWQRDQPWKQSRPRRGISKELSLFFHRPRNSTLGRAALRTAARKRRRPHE
UniProt P28159: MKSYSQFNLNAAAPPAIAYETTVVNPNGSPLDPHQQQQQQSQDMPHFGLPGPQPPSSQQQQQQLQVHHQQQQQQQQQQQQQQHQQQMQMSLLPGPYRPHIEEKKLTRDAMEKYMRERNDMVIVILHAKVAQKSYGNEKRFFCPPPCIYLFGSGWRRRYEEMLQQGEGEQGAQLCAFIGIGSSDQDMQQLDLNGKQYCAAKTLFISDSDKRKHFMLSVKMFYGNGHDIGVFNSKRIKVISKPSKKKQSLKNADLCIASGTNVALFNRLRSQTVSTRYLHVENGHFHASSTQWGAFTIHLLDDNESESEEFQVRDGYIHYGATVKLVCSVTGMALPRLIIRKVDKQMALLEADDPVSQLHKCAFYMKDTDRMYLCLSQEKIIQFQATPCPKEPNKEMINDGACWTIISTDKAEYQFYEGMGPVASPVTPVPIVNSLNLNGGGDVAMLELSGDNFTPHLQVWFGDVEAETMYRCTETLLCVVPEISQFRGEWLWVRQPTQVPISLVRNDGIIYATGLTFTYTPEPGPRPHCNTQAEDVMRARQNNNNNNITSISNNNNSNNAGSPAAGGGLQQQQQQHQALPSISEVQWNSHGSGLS

For the experiment, the target named is SMT3–Hairless NTCT fusion protein (residues 232–358) (Drosophila melanogaster) (UniProt Q02308). Description: ITC.

Take “Su(H) NH-CTD (amino acids 101–119 + 415–523) (from UniProt P28159) (domain or fragment)”: the stoichiometry N turned out to be 0.9.
